PMC11345774, “Discovery of Novel, Selective, and Nonbasic Agonists for the Kappa-Opioid Receptor Determined by Salvinorin A-Based Virtual Screening” (Journal of Medicinal Chemistry, 2024)

By UniProt entry, the sequences of proteins in these tests, tags left out. Where a name states a change or a piece, a line headed by the entry shows the natural chain unless it says otherwise.
UniProt P41145: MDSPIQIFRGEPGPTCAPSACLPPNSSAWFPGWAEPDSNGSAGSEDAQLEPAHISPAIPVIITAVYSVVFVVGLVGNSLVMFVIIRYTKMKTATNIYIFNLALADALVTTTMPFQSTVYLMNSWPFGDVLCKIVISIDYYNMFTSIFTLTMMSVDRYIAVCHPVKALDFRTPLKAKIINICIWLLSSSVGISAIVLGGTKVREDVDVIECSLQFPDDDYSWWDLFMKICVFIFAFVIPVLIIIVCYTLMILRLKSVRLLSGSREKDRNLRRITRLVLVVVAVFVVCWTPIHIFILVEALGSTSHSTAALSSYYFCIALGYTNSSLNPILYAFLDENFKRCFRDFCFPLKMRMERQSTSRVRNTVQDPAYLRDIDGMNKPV

Biological target: human KOR (Homo sapiens, UniProt P41145)
Test: PathHunter β-arrestin2 recruitment assay, U2OS-hKOR-β-arrestin2 cells
Type: cell-based
Conditions: relative to maximal effect of U69,593 (as 100%)

## CN(C(=O)Cc1ccccc1)[C@H]1CC[C@@]2(CCCO2)C[C@@H]1N1CCCC1
  β-arrestin2 recruitment Emax: 100%
